Results on two substances are retold here after paper PMC5587394.

The target of one experiment is FGFR1c (Homo sapiens) (UniProt P11362). The conditions noted are these: cited from earlier work.
In another experiment the target is FGF9 (Homo sapiens) (UniProt P31371). The experiment in a line: sedimentation equilibrium ultracentrifugation. The settings on record: cited from earlier work.
Experiment [1] concerns the target FGF9^WT (human FGF9, residues 35-208) (human) (UniProt P31371). The experiment is described as follows: SEC-MALS.

pKd: −log10 of the molar value.

One may read the pKd as −log10 of the Kd, conventionally taken in molar units. Regarding FGF9 (from UniProt P31371), the pKd with FGFR1c (Homo sapiens) was 6.05; in the experiment with FGF9 (Homo sapiens), 6.17. In general, stoichiometry N refers to a count of units in the complex or per binding partner. The substance “FGF9^WT (human FGF9, residues 35-208) (from UniProt P31371 35-208) (ligand)” yielded a stoichiometry N in experiment [1] of 2.
